Laboratory results reported in PubChem BioAssay AID1189 (EPA DSSTox, 2008).
Activity calls are given as the source filed them.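 Rule for the calls: active = a tumor-causing dose value with its tumor site reported for any sex and species group of a rodent or other animal cancer study; inconclusive = only studies judged inadequate by the national testing program; inactive = tested in at least one study, none positive.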 Where a call stands in place of a potency, no number is given.

Test: DSSTox (CPDBAS) Carcinogenic Potency Database Summary SingleCellCall Results
Settings: animal chronic carcinogenicity bioassays, CPDB summary call
Source text: The Carcinogenic Potency Database (CPDB) is a unique and widely used international resource of the results of over 6500 chronic, long-term animal cancer tests on over 1500 chemical substances. The CPDB provides easy access to the bioassay literature, with qualitative and quantitative analyses of both positive and negative experiments that have been published over the past 50 years in the general literature and by the National Cancer Institute/National Toxicology Program. The CPDB standardizes the diverse literature of cancer bioassays that vary widely in protocol, histopathological examination and nomenclature, and in the published author's choices of what information to provide in their papers. Results are reported in the CPDB for tests in rats, mice, hamsters, dogs, and nonhuman primates, and are based on the most positive result among all experiments for each sex-species. The DSSTox CPDBAS (all species) file incorporates data from the CPDB Summary Tables for the full list of over 1500 chemical substances tested in at least one species. A summary SingleCellCall, based on experimental bioassay results of one or more species, is provided for the entire DSSTox CPDBAS file (see Source URL).
An assignment of categorical carcinogenic activity based on minimal evidence for or against activity. […] Associated TD50 values and tumor site details for the relevant species/sex experiment supporting this overall CPDBAS SingleSiteCall are provided in the full CPDBAS DSSTox file (see Comment) and the corresponding CPDBAS Species Bioassay in PubChem.

**Q.** With CN(N=O)C(=N)N[N+](=O)[O-] as the compound, how does the outcome read?
**A.** The outcome was “active; inactive”.

**Q.** With O[C@@H]([C@H](O)[C@H](O)CNCCCl)[C@H](O)CNCCCl as the compound, how does the outcome read?
**A.** Its outcome is “inactive”.

**Q.** With NC(=O)Nc1ccc([As](=O)(O)O)cc1 as the compound, how does the outcome read?
**A.** The outcome was “inactive”.

**Q.** Which outcome does the source give for COP(=S)(OC)SCCNC(C)=O here?
**A.** The outcome was “inactive; active”.

**Q.** For C[As](C)(C)=O, which outcome is on record?
**A.** The outcome was “active; inactive”.

**Q.** For C1CN1, which outcome is on record?
**A.** The outcome was “active; inactive”.

**Q.** For C[As](=O)(O)O, which outcome is on record?
**A.** The outcome was “inactive”.

**Q.** Which outcome does the source give for COP(=O)(OC)N1CCOCC1 here?
**A.** The outcome was “active”.

**Q.** With O=C1C2CC=CCC2C(=O)N1SC(Cl)(Cl)C(Cl)Cl (stereo not given) as the compound, how does the outcome read?
**A.** Its outcome is “active; inactive”.

**Q.** For CCN(N=O)C(=N)N[N+](=O)[O-], which outcome is on record?
**A.** The outcome was “active”.
